In the NIST ThermoML archive (doi:10.1021/je800152d):
Numbers after ± are expanded uncertainties.

Assay: cn = amount concentration of the nth substance listed, in mol/dm3
Conditions: 298.15 K, 101 kPa, Liquid, Direct current cell with electrodes

CCC[N+](CCC)(CCC)CCC.O=S(=O)([N-]S(=O)(=O)C(F)(F)F)C(F)(F)F [tetrapropylammonium bis[(trifluoromethyl)sulfonyl]imide] + ClCCl
Conditions	molar conductivity [S·m2/mol]
c1 = 2.208e-05	0.008542 ± 3.4e-05
c1 = 4.726e-05	0.007477 ± 3e-05
c1 = 8.42e-05	0.006476 ± 2.6e-05
c1 = 0.0001183	0.005862 ± 2.3e-05
c1 = 0.0001551	0.005415 ± 2.2e-05
c1 = 0.0002027	0.00498 ± 2e-05
c1 = 0.000241	0.004713 ± 1.9e-05
c1 = 0.0002936	0.004414 ± 1.8e-05
c1 = 0.0003524	0.004144 ± 1.7e-05
c1 = 0.0004038	0.003971 ± 1.6e-05
